In the experiment the target is R132H mutant IDH1 enzyme (Homo sapiens (Human), UniProt O75874, R132H). The experiment is described as follows: R132H IDH1 Enzymatic Assay. It counts as biochemical. Particulars: R132H mutant IDH1 enzyme 1.5 nM final; luminescence readout; read-out: IC50.

By UniProt entry, the sequences of proteins in these tests, tags left out.
UniProt O75874, whole entry R132H: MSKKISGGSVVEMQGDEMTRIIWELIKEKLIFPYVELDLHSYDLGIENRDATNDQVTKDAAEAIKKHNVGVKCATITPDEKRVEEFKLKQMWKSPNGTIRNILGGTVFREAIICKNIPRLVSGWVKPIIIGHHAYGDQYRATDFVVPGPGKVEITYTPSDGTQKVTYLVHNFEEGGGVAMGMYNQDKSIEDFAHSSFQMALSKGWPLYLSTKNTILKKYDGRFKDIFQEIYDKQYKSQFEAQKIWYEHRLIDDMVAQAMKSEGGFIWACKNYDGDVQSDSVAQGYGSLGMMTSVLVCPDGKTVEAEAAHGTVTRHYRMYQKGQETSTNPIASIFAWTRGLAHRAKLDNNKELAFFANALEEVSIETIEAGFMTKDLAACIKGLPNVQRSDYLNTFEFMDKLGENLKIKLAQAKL

The term IC50 denotes the point on the concentration scale where inhibition reaches its midpoint. Consider `C[C@H](N[C@H]1CC[C@@H](C(=O)N2Cc3cccnc3Nc3ccc(N4CCOCC4)cc32)CC1)C(F)(F)F` [Example 440, cis-4-[(8-morpholin-4-yl-5,11-dihydro-6H-pyrido[2,3-b][1,5]benzodiazepin-6-yl)carbonyl]-N-[(1S)-2,2,2-trifluoro-1-methylethyl]cyclohexanamine], for which the IC50 was 920 nM.
On to `CC(C)O[C@H]1CC[C@H](C(=O)N2Cc3cccnc3Nc3ccc(C4CCOC4)cc32)OC1` (single isomer, unassigned) [Example 16], for which the IC50 was found to be 19 nM.
For `O=C([C@H]1CC[C@H](NC2(C(F)(F)F)CC2)CO1)N1Cc2cccnc2Nc2ccc(N3CCOCC3)cc21` [Example 482, (8-morpholino-5,11-dihydro-6H-benzo[b]pyrido[2,3-e][1,4]diazepin-6-yl)((2R,5S)-5-((1-(trifluoromethyl)cyclopropyl)amino)tetrahydro-2H-pyran-2-yl]methanone] the value was 506 nM.
As for `COC1CCC(C(=O)N2Cc3cccnc3Nc3ccc(CCc4ccccn4)cc32)CC1` (stereo not shown) [Example 419, 6-[(4-methoxycyclohexyl)carbonyl]-8-(2-pyridin-2-ylethyl)-6,11-dihydro-5H-pyrido[2,3-b][1,5]benzodiazepine], the figure is 107 nM.
In the case of `CC(C)O[C@H]1CC[C@H](C(=O)N2Cc3cccnc3Nc3ccc(C4CCCCO4)cc32)OC1` (stereo partly drawn) [Example 147, ((2R,5S)-5-isopropoxytetrahydro-2H-pyran-2-yl)(8-(tetrahydro-2H-pyran-2-yl)-5,11-dihydro-6H-benzo[b]pyrido[2,3-e][1,4]diazepin-6-yl)methanone], the IC50 came to 38 nM.
For `CC(C)O[C@H]1CC[C@H](C(=O)N2Cc3cccnc3Nc3ccc(N4C5CO[C@H]6[C@@H]5OC[C@H]64)cc32)CC1` [Example 319, 8-[(3R,3aR,6S,6aR)-hexahydro-3,6-epiminofuro[3,2-b]furan-7-yl]-6-{[trans-4-(1-methylethoxy)cyclohexyl]car-bonyl}-6,11-dihydro-5H-pyrido[2,3-b][1,5]benzodiazepine] the value was 18 nM; for `CO[C@H]1CC[C@@H](C(=O)N2Cc3cccnc3Nc3ccc(C(N4CCCC4)C(F)(F)F)cc32)CC1` (relative stereo) [Example 8, 6-[(Cis-4-methoxycyclohexyl)carbonyl]-8-(2,2,2-trifluoro-1-pyrrolidin-1-ylethyl)-6,11-dihydro-5H-pyrido[2,3-b][1,5]benzodiazepine], 76 nM.
For `C=CC(=O)N1C[C@@H]2CC[C@H]1CN2c1ccc2c(c1)N(C(=O)C1CC(C)(C)C1)Cc1cccnc1N2` [Example 498, 8-[(1S,4S)-5-acryloyl-2,5-diazabicyclo[2.2.2]oct-2-yl]-6-[(3,3-dimethylcyclobutyl)carbonyl]-6,11-dihydro-5H-pyrido[2,3-b][1,5]benzodiazepine] the value was 42 nM; for `CO[C@H]1CC[C@H](C(=O)N2Cc3cccnc3Nc3ccc(-c4ccn(C5CCCCO5)n4)cc32)CC1` (stereo partly drawn) [Example 352, 6-[(trans-4-methoxycyclohexyl)carbonyl]-8-[1-(tetrahydro-2H-pyran-2-yl)-1H-pyrazol-3-yl]-6,11-dihydro-5H-pyrido[2,3-b][1,5]benzodiazepine], 138 nM; for `CO[C@H]1CC[C@H](C(=O)N2Cc3cccnc3Nc3ccc(-c4ccnc(N(C)C)c4)cc32)CC1` [Example 407], 123 nM.
As for `CC(C)O[C@H]1CC[C@H](C(=O)N2Cc3cccnc3Nc3ccc(N4C[C@H]5CC[C@@H]4CO5)cc32)OC1` (single isomer, unassigned) [Example 41], the figure is 22 nM; as for `COC1(c2ccc3c(c2)N(C(=O)[C@H]2CC[C@H](OC(C)C)CC2)Cc2cccnc2N3)CCOCC1` [Example 524, [8-(4-methoxytetrahydro-2H-pyran-4-yl)-5,11-dihydro-6H-pyrido[2,3-b][1,5]benzodiazepin-6-yl][trans-4-(propan-2-yloxy)cyclohexyl]methanone], 39 nM; as for `CC(C)O[C@H]1CC[C@H](C(=O)N2Cc3cccnc3Nc3ccc(N4CC5COCC(C4)O5)cc32)CC1` [Example 317, 8-(3,9-dioxa-7-azabicyclo[3.3.1]non-7-yl)-6-{[trans-4-(1-methylethoxy)cyclohexyl]car-bonyl}-6,11-dihydro-5H-pyrido[2,3-b][1,5]benzodiazepine], 39 nM.
Turning to `CO[C@H]1CC[C@H](C(=O)N2Cc3cccnc3Nc3ccc(N4C[C@H]5CC[C@@H](C4)O5)cc32)CC1` [Example 243, 6-[(trans-4-methoxycyclohexyl)carbonyl]-8-[(1R,5S)-8-oxa-3-azabicyclo[3.2.1]oct-3-yl]-6,11-dihydro-5H-pyrido[2,3-b][1,5]benzodiazepine], the 50% inhibitory concentration (IC50) is 83 nM.
With `CCO[C@H]1CC[C@H](C(=O)N2Cc3cccnc3Nc3ccc(N4CC5CCC4CO5)cc32)CC1` (stereo partly drawn) [Example 305, 6-[(trans-4-ethoxycyclohexyl)carbonyl]-8-(2-oxa-5-azabicyclo[2.2.2]oct-5-yl)-6,11-dihydro-5H-pyrido[2,3-b][1,5]benzodiazepine], the IC50 is 77 nM.
On to `COCCC1CN(c2ccc3c(c2)N(C(=O)[C@H]2CC[C@H](OC)CC2)Cc2cccnc2N3)C1` [Example 415, 6-[(trans-4-methoxycyclohexyl)carbonyl]-8-[3-(2-methoxyethyl)azetidin-1-yl]-6,11-dihydro-5H-pyrido[2,3-b][1,5]benzodiazepine], for which the IC50 came to 686 nM.
For `CO[C@H]1CC[C@H](C(=O)N2Cc3cccnc3Nc3ccc(N4CC(C(F)F)C4)cc32)CC1` [Example 417, 8-[3-(difluoromethyl)azetidin-1-yl]-6-[(trans-4-methoxycyclohexyl)carbonyl]-6,11-dihydro-5H-pyrido[2,3-b][1,5]benzodiazepine], the IC50 came to 555 nM.
With `CCO[C@H]1CC[C@@H](C(=O)N2Cc3cccnc3Nc3ccc(N4C[C@@H]5CC[C@H]4CO5)cc32)C[C@@H]1F` (single isomer, unassigned) [Example 322], the IC50 worked out at 6 nM.
For `CCO[C@@H]1CC[C@H](C(=O)N2Cc3cccnc3Nc3ccc(N4CC5CCC(C4)O5)cc32)C1` [Example 155, 6-{[(1S,3R)-3-ethoxycyclopentyl]carbon-yl}-8-(8-oxa-3-azabicyclo[3.2.1]oct-3-yl)-6,11-dihydro-5H-pyrido[2,3-b][1,5]benzodiazepine] the value was 55 nM; for `CO[C@H]1CC[C@H](C(=O)N2Cc3cccnc3Nc3ccc(N4C5CCC4COC5)cc32)CC1` [Example 292, 6-[(trans-4-methoxycyclohexyl)carbonyl]-8-(3-oxa-8-azabicyclo[3.2.1]oct-8-yl)-6,11-dihydro-5H-pyrido[2,3-b][1,5]benzodiazepine], 678 nM.
As for `CO[C@H]1CC[C@@H](C(=O)N2Cc3cccnc3Nc3ccc(CN(C)C(C4CC4)C(F)(F)F)cc32)CC1` (relative stereo) [Example 6, 1-Cyclopropyl-2,2,2-trifluoro-N-({6-[(cis-4-methoxycyclohexyl)carbonyl]-6,11-dihydro-5H-pyrido[2,3-b][1,5]benzodiazepin-8-yl}methyl)-N-methylethanamine], the figure is 151 nM; as for `C[C@H]1CC(F)(F)CC[C@@H]1C(=O)N1Cc2cccnc2Nc2ccc(N3CCC(F)(F)C3)cc21` [Example 197, 6-{[(1S,2S)-4,4-difluoro-2-methylcyclohexyl]carbonyl}-8-(3,3-difluoropyrrolidin-1-yl)-6,11-dihydro-5H-pyrido[2,3-b][1,5]benzodiazepine], 220 nM.
As for `CC(C)O[C@H]1CC[C@H](C(=O)N2Cc3cccnc3Nc3ccc(CC#N)cc32)OC1` [Example 139, 2-(6-((2R,5S)-5-isopropoxytetrahydro-2H-pyran-2-carbonyl)-6,11-dihydro-5H-benzo[b]pyrido[2,3-e][1,4]diazepin-8-yl)acetonitrile], the figure is 91 nM.
In the case of `CC(C)O[C@H]1CCC(C(=O)N2Cc3cccnc3Nc3ccc(C4CCCOC4)cc32)OC1` (single isomer, unassigned) [Example 28], the half-inhibitory concentration (IC50) is 7 nM.
As for `CC(C)O[C@H]1CC[C@H](C(=O)N2Cc3cccnc3Nc3ccc(C4=CCN(C)C(=O)C4)cc32)CC1` [Example 372, 1-methyl-4-(6-{[trans-4-(1-methylethoxy)cyclohexyl]carbonyl}-6,11-dihydro-5H-pyrido[2,3-b][1,5]benzodiazepin-8-yl)-3,6-dihydropyridin-2(1H)-one], the IC50 was determined as 20 nM.
As for `CO[C@H]1CC[C@H](C(=O)N2Cc3cccnc3Nc3ccc(-c4cc(C(F)(F)F)nn4C)cc32)CC1` [Example 355, 6-[(trans-4-methoxycyclohexyl)carbonyl]-8-[1-methyl-3-(trifluoromethyl)-1H-pyrazol-5-yl]-6,11-dihydro-5H-pyrido[2,3-b][1,3]benzodiazepine], the IC50 worked out at 224 nM.
For `O=C([C@H]1CC[C@H](OC(F)F)CC1)N1Cc2cccnc2Nc2ccc(N3CCOCC3)cc21` [Example 547, [Trans-4-(difluoromethoxy)cyclohexyl][8-(morpholin-4-yl)-5,11-dihydro-6H-pyrido[2,3-b][1,5]benzodiazepin-6-yl]methanone] the value was 18 nM; for `CC[C@H]1CC[C@H](C(=O)N2Cc3cccnc3Nc3ccccc32)CC1` [Example 62, 6-[(trans-4-ethylcyclohexyl)carbonyl]-6,11-dihydro-5H-pyrido[2,3-b][1,5]benzodiazepine], 112 nM.
As for `CC(C)O[C@H]1CC[C@H](C(=O)N2Cc3cccnc3Nc3ccc(C4OCCOC4C)cc32)OC1` (single isomer, unassigned) [Example 24], the figure is 87 nM; as for `CO[C@H]1CC[C@H](C(=O)N2Cc3cccnc3Nc3ccc(-c4cnc(N(C)C)nc4)cc32)CC1` [Example 401, 5-{6-[(trans-4-methoxycyclohexyl)carbonyl]-6,11-dihydro-5H-pyrido[2,3-b][1,5]benzodiazepin-8-yl}-N,N-dimethylpyrimidin-2-amine], 219 nM.
Consider `CCCCC[C@H]1CC[C@H](C(=O)N2Cc3cccnc3Nc3ccccc32)CC1` [Example 69, 6-[(trans-4-pentylcyclohexyl)carbon-yl]-6,11-dihydro-5H-pyrido[2,3-b][1,5]benzodiazepine], for which the IC50 was 344 nM.

The values above are taken from patent US10442819B2, “Tricyclic compounds as inhibitors of mutant IDH enzymes” (Merck Sharp & Dohme Corp., priority 2014, dated 2019).
